Assay results taken from ChEMBL document CHEMBL4138076, “Methyllysine binding domains: Structural insight and small molecule probe development” (Eur J Med Chem, 2017).

The chains behind the UniProt entries cited, without tags or fusion partners.
UniProt O75530, whole entry: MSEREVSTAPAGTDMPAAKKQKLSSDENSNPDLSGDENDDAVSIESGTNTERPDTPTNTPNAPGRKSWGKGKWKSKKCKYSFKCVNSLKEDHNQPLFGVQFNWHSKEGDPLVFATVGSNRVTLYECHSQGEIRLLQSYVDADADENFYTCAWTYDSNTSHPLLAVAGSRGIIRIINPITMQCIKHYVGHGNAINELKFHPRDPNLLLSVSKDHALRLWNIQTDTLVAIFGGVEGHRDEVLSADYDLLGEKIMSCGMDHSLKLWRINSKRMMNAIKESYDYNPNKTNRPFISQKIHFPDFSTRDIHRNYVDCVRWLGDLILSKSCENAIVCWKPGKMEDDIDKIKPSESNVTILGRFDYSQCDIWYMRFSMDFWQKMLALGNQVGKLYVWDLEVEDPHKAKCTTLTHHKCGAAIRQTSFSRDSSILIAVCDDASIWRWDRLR

Assays:
Polycomb protein EED = Polycomb protein EED (Homo sapiens, UniProt O75530); test: Inhibition of full length N-terminal His-tagged EED (unknown origin) expressed in Rosetta2 BL21(DE3)pLysS cells after 30 mins by 3-FAM labelled fluorescence polarization assay
[1] = molecular target: T1, E3 SUMO-protein ligase CBX4 (Homo sapiens, UniProt O00257); test: Binding affinity to Cbx4 (unknown origin) by ITC method
T1 sequence (O00257 whole entry): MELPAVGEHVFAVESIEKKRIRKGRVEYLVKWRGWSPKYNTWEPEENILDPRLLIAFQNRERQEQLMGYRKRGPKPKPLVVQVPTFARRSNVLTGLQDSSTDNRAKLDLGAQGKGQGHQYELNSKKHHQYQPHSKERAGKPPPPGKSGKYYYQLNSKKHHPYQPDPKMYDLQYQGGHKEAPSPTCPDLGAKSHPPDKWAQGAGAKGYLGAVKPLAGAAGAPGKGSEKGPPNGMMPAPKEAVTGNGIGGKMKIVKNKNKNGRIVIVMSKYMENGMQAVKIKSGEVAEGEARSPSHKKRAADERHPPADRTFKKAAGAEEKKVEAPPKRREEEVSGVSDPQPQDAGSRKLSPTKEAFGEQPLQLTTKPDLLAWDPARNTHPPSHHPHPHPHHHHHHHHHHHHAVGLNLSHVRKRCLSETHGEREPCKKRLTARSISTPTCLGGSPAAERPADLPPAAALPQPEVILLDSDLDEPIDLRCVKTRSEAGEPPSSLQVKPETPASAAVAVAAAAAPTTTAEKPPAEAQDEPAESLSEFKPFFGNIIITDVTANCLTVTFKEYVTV

Row | pKd [1] | SMILES | pIC50 (Polycomb protein EED)
1 |  | CC(C)N(C)CCCC[C@H](NC(=O)[C@@H]1C[C@@H]2CCCC[C@@H]2N1)C(=O)N[C@@H](Cc1ccccc1)C(=O)N1CCCCC1 | 5.41
2 |  | CC(C)C[C@H](NC(=O)[C@H](Cc1ccccc1)NC(=O)[C@H](CCCC[N+](C)(C)C)NC(=O)[C@H](CO)NC(=O)[C@@H]1CCCN1)C(N)=O | 5.78
3 | 7.01 | CCN(CC)CCCC[C@H](NC(=O)[C@H](CC(C)C)NC(=O)[C@H](C)NC(=O)[C@H](Cc1ccccc1)NC(=O)c1ccc(C(C)(C)C)cc1)C(=O)N[C@@H](CO)C(=O)OC | 

pIC50, pKd: −log10 of the molar value.
